Data taken from PubChem BioAssay AID1189 (EPA DSSTox, 2008).
Activity calls are given as the source filed them.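 The calls were made as follows: active = a tumor-causing dose value with its tumor site reported for any sex and species group of a rodent or other animal cancer study; inconclusive = only studies judged inadequate by the national testing program; inactive = tested in at least one study, none positive.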 Entries that show only a call come without a potency.

Experiment: DSSTox (CPDBAS) Carcinogenic Potency Database Summary SingleCellCall Results
Details: animal chronic carcinogenicity bioassays, CPDB summary call
Source text: The Carcinogenic Potency Database (CPDB) is a unique and widely used international resource of the results of over 6500 chronic, long-term animal cancer tests on over 1500 chemical substances. The CPDB provides easy access to the bioassay literature, with qualitative and quantitative analyses of both positive and negative experiments that have been published over the past 50 years in the general literature and by the National Cancer Institute/National Toxicology Program. The CPDB standardizes the diverse literature of cancer bioassays that vary widely in protocol, histopathological examination and nomenclature, and in the published author's choices of what information to provide in their papers. Results are reported in the CPDB for tests in rats, mice, hamsters, dogs, and nonhuman primates, and are based on the most positive result among all experiments for each sex-species. The DSSTox CPDBAS (all species) file incorporates data from the CPDB Summary Tables for the full list of over 1500 chemical substances tested in at least one species. A summary SingleCellCall, based on experimental bioassay results of one or more species, is provided for the entire DSSTox CPDBAS file (see Source URL).
An assignment of categorical carcinogenic activity based on minimal evidence for or against activity. […] Associated TD50 values and tumor site details for the relevant species/sex experiment supporting this overall CPDBAS SingleSiteCall are provided in the full CPDBAS DSSTox file (see Comment) and the corresponding CPDBAS Species Bioassay in PubChem.

Row | Compound | outcome
1 | ClCl | inactive; active
2 | O=[N+]([O-])OCC(CO[N+](=O)[O-])(CO[N+](=O)[O-])CO[N+](=O)[O-] | inactive
3 | COP(C)(=O)OC | active
4 | Cc1c([N+](=O)[O-])cccc1[N+](=O)[O-] | active
5 | CN[N+](=O)[O-] | active
6 | CN(C)[N+](=O)[O-] | active
7 | O=[N+]([O-])c1cc([N+](=O)[O-])cc([N+](=O)[O-])c1 | inactive; active
